Source: patent US7151191B2, “Compounds and compositions for delivering active agents” (Emisphere Technologies, Inc., priority 2000, dated 2006)

Assay: Oral (PO) delivery of human zinc insulin with delivery agent compound in rats (serum insulin ELISA)
Settings: rat, insulin alone without delivery agent, previous experiments
Procedure: Oral dosing (PO) compositions of delivery agent compound and human zinc insulin (minimum 26 IU/mg available from Calbiochem—Novabiochem Corp, La Jolla, Calif.) were prepared in deionized water. […] The solution was vortexed, then heated (about 37° C.) and sonicated. The pH was adjusted to about 7 to 8.5 with NaOH or HCl. […] The final delivery agent compound dose, insulin dose and dose volume amounts are listed below in Table 1.
The typical dosing and sampling protocols were as follows. […] A dosing group of five rats was administered one of the dosing solutions. […] The syringe was filled with dosing solution by drawing the solution through the catheter, which was then wiped dry. The catheter was placed down the esophagus leaving 1 cm of tubing past the incisors. The dosing solution was administered by pressing the syringe plunger.
The five values for each time point were averaged and the results plotted as serum insulin concentration versus time.

Substance: human insulin
- levels of human insulin following oral dosing with human insulin alone: no measurable levels
